Tested on: Trichophyton rubrum (ATCC 28188)
Experiment: Time-Kill test (Example 9)
Assay type: cell-based

SMILES: O=C(O)CN(CCN(CC(=O)O)CC(=O)O)CC(=O)O.[Zn]
- Relative Kill Potency: 0.52
- 30-Second Reduction from Initial CFU Values (2,200,000 CFU initial): 4.89 fold
- reduction of T. rubrum count (Study 509-101, in 30 sec): not effective
